Earlier results, collected in patent US20230000960A1, “NEOANTIGEN COMPOSITIONS AND USES THEREOF” (BIONTECH US INC., priority 2019, published 2023).

Details: more than 25 clinical trials

Substance: poly-ICLC
- toxicity profile: relatively benign toxicity profile
